For one compound, Potency results are on record in PubChem BioAssay AID1634 (National Center for Advancing Translational Sciences (NCATS), 2009).

Amino acid sequences for entries named in this document (tags omitted).
UniProt P14618, whole entry, looked up: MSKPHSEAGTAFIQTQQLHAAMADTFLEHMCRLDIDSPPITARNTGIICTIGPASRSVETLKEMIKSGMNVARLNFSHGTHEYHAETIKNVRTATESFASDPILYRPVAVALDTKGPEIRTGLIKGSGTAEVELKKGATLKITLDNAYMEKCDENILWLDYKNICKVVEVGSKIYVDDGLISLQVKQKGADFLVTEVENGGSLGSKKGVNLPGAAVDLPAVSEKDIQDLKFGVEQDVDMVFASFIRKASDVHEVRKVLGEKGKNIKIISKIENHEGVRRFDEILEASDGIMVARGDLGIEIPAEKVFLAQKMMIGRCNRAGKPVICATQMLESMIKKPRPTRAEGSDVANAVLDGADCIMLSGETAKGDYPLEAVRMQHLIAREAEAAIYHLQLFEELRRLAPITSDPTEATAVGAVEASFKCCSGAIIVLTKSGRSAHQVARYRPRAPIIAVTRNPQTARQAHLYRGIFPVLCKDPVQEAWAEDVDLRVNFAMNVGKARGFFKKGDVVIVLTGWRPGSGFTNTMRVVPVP

The entries are a selection whose mix differs from that of the whole data set. Activity calls are given as the source filed them. Calls come from the whole dose curve; as a rule, active = well fitted inhibition curve with a large enough effect; inconclusive = small, poorly fitted or top-dose-only effect; inactive = no such curve, though single readings can be large or run the other way.
Potency is the fitted concentration of half-maximal effect.

The assay addresses Pyruvate kinase PKM (Homo sapiens) (UniProt P14618). Briefly: qHTS Assay for Inhibitors of Human Muscle isoform 2 Pyruvate Kinase. Note: nearly all actives have a fitted effect of over 60% in size. The settings on record: purified PKM2, ATP generation, Kinase-Glo luminescence. As for the experimental part:
NIH Chemical Genomics Center [NCGC] Matthew G. Vander Heiden, M.D., Ph.D. [Harvard Medical School, 77 Avenue Louis Pasteur, Boston, MA 02115] […] ATP generation was detected in a coupled reaction by luciferase-mediated luminescence, an ATP-dependent process. […] The enzyme was assayed at an intermediate level of activity to screen for both inhibitors and activators.
NCGC Assay Protocol Summary: Three uL of substrate mix (at r.t.) in assay buffer (50 mM Imidazole pH7.2, 50 mM KCl, 7 mM MgCl2, 0.01% Tween 20, 0.05% BSA) was dispensed into white solid bottom 1,536 well microtiter plates so that the final concentrations of substrates in the assay were 0.1 mM ADP and 0.5 mM PEP. 23 nL of compound were delivered by a pin tool and 1 uL of enzyme mix in assay buffer (4 degree Celsius) was added. Plates were incubated at room temperature for 1 hour. Two uL of detection mix (Kinase-Glo, Promega; at 4 degree Celsius protected from light) was added and luminescence read by a ViewLux (Perkin Elmer) at 5 second exposure/plate. Data were normalized to the uninhibited and AC100 inhibition (no enzyme). To monitor activation, the first column contained a titration of the activator, NCGC00031955-01 (16-point 1:2 dilutions in duplicate starting at 57 uM) and the first 16 rows of column 4 contained 57 uM of NCGC00031955-01.
Consider `O=P(Nc1nccs1)(c1ccccc1)c1nc2ccccc2s1` (stereo unspecified), for which the Potency is active: 10 µM.
